High-throughput results deposited in PubChem BioAssay by Broad Institute.
This is a sample that favours compounds with a hit; in the whole collection about 2.8% have one here.
PglD DTNB – C. jejuni PglD acetyltransferase inhibitors, primary screen, biochemical, DTNB colorimetric, single point; purified PglD enzyme, DTNB colorimetric CoA detection; actives 0.098% (n = 360,000); inhibition, % at 12.5 µM; UDP-N-acetylbacillosamine N-acetyltransferase PglD (Campylobacter jejuni); AID 602405, 2012; in the data active = inhibition above about 16%, passing the limit was not always enough
Statin myotox sup – suppressors of statin myotoxicity in C2C12 myotubes, primary screen, cell-based, single point, plate reader. C2C12 myotubes + simvastatin, ATP luminescence, 48 h; scaled: DMSO 0, geranylgeraniol control 100. rescue of ATP level, % at 7.49 µM. actives 0.78% (n = 330,000). AID 602340, 2012;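 active = mean ATP rescue above about 67%, or every replicate alone reaching that limit, limit read from the data, passing the limit was not always enough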;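 note: myotubes were challenged with 10 µM simvastatin during compound exposure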
Yeast UUG start – alters start codon recognition fidelity in yeast. S. cerevisiae UUG-firefly luciferase reporter, luminescence/redox ratio. activity score, % at 18.7 µM. 0.13% of 350,000 active. AID 602363;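 active = replicate mean at a twofold rise or more, about +100% in these data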;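 also: firefly luciferase made from a UUG start codon reports start codon fidelity; reporter light over untreated wells divided by growth signal over untreated wells; some hits fall short of that in this replicate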
esBAF inh – Bmi1 luciferase reporter increase in mESCs, primary screen, esBAF inhibitor project, mouse ES cells, Bmi1 luciferase knock-in, single point | reporter increase, % at 12.5 µM | AID 602393, 2012 | 24 h; 100% = twice the neutral-well signal | actives 2% (n = 350,000); in the data active = activation above about 40%;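 note: 0% = median of the plate's neutral control wells and 100% = double that signal; a rise in the Bmi1 reporter signal indicates esBAF inhibition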
E-sel inducer – E-selectin induction in HUVECs, primary screen, imaging, HUVEC, immunofluorescence imaging, single point; P16581; normalized: neutral wells 0, TNF-alpha wells 100; activation, % at 7.58 µM; actives 0.37% (n = 260,000); AID 686992, 2013;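 active = mean E-selectin-positive cell signal at least 10% of the positive control, reached in at least 60% of replicates, without over 20% cell loss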
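Read-out: % PE-positive cells | Test system: HUVEC | Doses: One compound dose added by pin transfer | Buffer or medium: EGM-2 over gelatin coat | Signal: Immunofluorescence imaging | Benchmarks: TNF-alpha, DMSO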
PGC1a acetyl inh – inhibitors of PGC1a acetylation signal, primary screen, cell-based, U2OS, AlphaScreen, inhibitor mode; AlphaScreen anti-acetyl-lysine; with virally co-expressed GCN5 acetyltransferase; inhibition, % at 15.6 µM; actives 0.17% (n = 350,000); AID 651687, 2012;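 active = every replicate shows inhibition of at least 40%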;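 note: 0% = neutral control wells and 100% = positive control wells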
The depositor's hits bear a star; x = no result given.

1) C[C@@H]1CN([C@H](C)CO)C(=O)c2cc(C3=CCCCC3)cnc2O[C@@H]1CN(C)Cc1ccccc1F
2) C[C@@H]1CN([C@H](C)CO)C(=O)c2cc(C3=CCCCC3)cnc2O[C@@H]1CN(C)C(=O)c1ccccn1
3) C[C@H]1CN([C@@H](C)CO)C(=O)c2cc(C3=CCCC3)cnc2O[C@@H]1CN(C)Cc1ccccc1F
4) COCC#Cc1cnc2c(c1)C(=O)N([C@H](C)CO)C[C@@H](C)[C@H](CN(C)C(=O)C1CCC1)O2
5) CCC(=O)N1CC(=O)N2[C@H](CO)[C@H](c3ccc(C#Cc4cccc(F)c4)cc3)[C@H]2C1
6) O=C(c1ccc(Cl)cc1)N1CCCC(c2ccccc2)=N1
7) CC1(O)CC(c2ccc(Cl)cc2)=NN1C(=O)c1ccc(Cl)cc1 (stereo not drawn)
8) CN1c2ccc(Br)cc2[C@@H]2[C@@H](CCN2C(=O)C2CCCC2)[C@@H]1CO
9) CO[C@@H]1CN(C)C(=O)c2cc(NC(=O)C3CC3)ccc2OC[C@H](C)N(C)C[C@H]1C
10) CCc1cc2c(=O)c(-c3cnn(-c4ccccc4)c3)coc2c(CN2CCOCC2)c1O
assay / compound	1	2	3	4	5	6	7	8	9	10
Statin myotox sup	115*	106*	11	6	x	80*	-5	x	4	-22
E-sel inducer	0	0	-1	1	0	x	-1	0	0	3
esBAF inh	1	0	-10	0	x	9	-14	x	1	54*
Yeast UUG start	-14	-10	x	10	x	7	6	x	-5	7
PGC1a acetyl inh	-4	-5	0	13	5	-1	14	x	14	-13
PglD DTNB	-2	1	x	13	x	-1	-10	x	6	-2

11) Cc1c(C(=O)Nc2ccccc2F)sc2ncn(CC(=O)N3CCOCC3)c(=O)c12
12) O=C(Cn1ncc(Cl)c(Cl)c1=O)N1CCN(S(=O)(=O)c2ccc3ccccc3c2)CC1
13) Cc1noc(C)c1NC(=O)N(C)C[C@@H]1Oc2c(NC(=O)C3CCCCC3)cccc2C(=O)N([C@@H](C)CO)C[C@@H]1C
14) CCCNC(=O)N(C)C[C@H]1Oc2ncc(C3=CCCCC3)cc2C(=O)N([C@@H](C)CO)C[C@@H]1C
15) CCOC(=O)C(C#N)=C1CCN(Cc2ccccc2)CC1
16) CCOC(=O)/C(C#N)=C1/C(=O)N(Cc2ccccc2)c2ccccc21
17) COC(=O)c1ccc(-c2ccc(OC)c([C@H]3[C@H]4C=CC[C@@H](C)[C@@H]4C(=O)N3Cc3ccccc3)c2)cc1
18) COc1ccc(-c2cc([C@H]3[C@H]4C=CC[C@@H](C)[C@@H]4C(=O)N3Cc3ccccc3)ccc2F)cc1OC
19) COC(=O)c1ccc(-c2ccc([C@H]3[C@H]4C=CC[C@@H](C)[C@@H]4C(=O)N3Cc3ccccc3)c(F)c2)cc1
20) Cc1noc(C)c1NC(=O)N[C@H]1C=C[C@H](CC(=O)Nc2ccccc2)O[C@@H]1CO
assay / compound	11	12	13	14	15	16	17	18	19	20
Statin myotox sup	-16	-27	-15	8	-1	-1	-52	10	-24	-8
E-sel inducer	x	x	1	0	x	x	0	0	0	1
esBAF inh	42*	-14	5	-4	-6	-3	79*	48*	59*	-3
Yeast UUG start	-20	-15	-19	16	-13	x	5	-18	-7	-7
PGC1a acetyl inh	-3	77*	0	-16	-13	73*	3	-31	x	-7
PglD DTNB	4	1	-2	2	2	x	2	-10	7	-2

21) Cc1ccc(C)c(NC(=S)c2ccc3ccccc3n2)c1
22) Cc1ccc(C)c(NC(=S)c2ccccn2)c1
23) CN(C)c1ccc(NC(=S)c2ccc3ccccc3n2)cc1
24) Cc1noc(C)c1NC(=O)Nc1ccc2c(c1)C(=O)N([C@H](C)CO)C[C@H](C)[C@@H](CN(C)C(=O)NC1CCCCC1)OCCCC[C@H](C)O2
25) C[C@H]1CCCCO[C@@H](CN(C)Cc2ccncc2)[C@@H](C)CN([C@@H](C)CO)C(=O)c2cc(NS(C)(=O)=O)ccc2O1
26) COc1ccc(NC(=O)c2cc(-c3cccs3)on2)c(OC)c1
27) Cc1ccc(NC(=O)c2cc(-c3cccs3)on2)cc1C
28) COc1ccc(-c2cc(C(=O)Nc3ccc(OC)cc3OC)no2)cc1
29) Cc1ccc(S(=O)(=O)N(C)C[C@@H]2Oc3c(NS(=O)(=O)c4cn(C)cn4)cccc3C(=O)N([C@@H](C)CO)C[C@@H]2C)cc1
30) C[C@H](CO)N1C[C@H](C)[C@@H](CN(C)Cc2ccc(C(=O)Nc3ccccc3N)cc2)Oc2ccc(NS(=O)(=O)c3cccs3)cc2CC1=O
assay / compound	21	22	23	24	25	26	27	28	29	30
Statin myotox sup	-12	-28	-2	x	-10	-5	-1	-5	-8	-26
E-sel inducer	x	x	x	0	0	60*	7	3	0	0
esBAF inh	76*	46*	31	4	-3	8	52*	-4	-6	-10
Yeast UUG start	-23	-8	-25	18	-14	-22	-16	-11	x	-3
PGC1a acetyl inh	-1	6	8	1	-10	-5	-3	10	1	-4
PglD DTNB	4	-3	-2	2	-1	5	-2	1	x	-4

Some of these compounds in order of their number in Yeast UUG start, low to high:
| cpd | SMILES | Yeast UUG start |
| --- | --- | --- |
| 26 | COc1ccc(NC(=O)c2cc(-c3cccs3)on2)c(OC)c1 | -22 |
| 25 | C[C@H]1CCCCO[C@@H](CN(C)Cc2ccncc2)[C@@H](C)CN([C@@H](C)CO)C(=O)c2cc(NS(C)(=O)=O)ccc2O1 | -14 |
| 28 | COc1ccc(-c2cc(C(=O)Nc3ccc(OC)cc3OC)no2)cc1 | -11 |
| 30 | C[C@H](CO)N1C[C@H](C)[C@@H](CN(C)Cc2ccc(C(=O)Nc3ccccc3N)cc2)Oc2ccc(NS(=O)(=O)c3cccs3)cc2CC1=O | -3 |

(cont.)
31) O=C1c2ccccc2C(=O)N1CN(C(=O)COc1ccccc1)c1ccc(F)cc1
32) COc1ccc(N(CN2C(=O)c3ccccc3C2=O)C(=O)COc2ccc(Cl)cc2Cl)cc1
33) CCOC(=O)c1ccc(NC(=O)c2ccco2)cc1
34) CC(C)OC(=O)c1ccc(NC(=O)c2ccco2)cc1
35) COC(=O)c1ccc(NC(=O)c2cccc(NC(=O)c3ccco3)c2)cc1
36) CCCC(CCC(=O)Nc1ccc(C(=O)OCC)cc1)C(=O)O (stereo not drawn)
37) CCOc1ccc(NC(=O)c2ccco2)cc1
38) CCCC(CCC(=O)Nc1ccc(C(=O)OC)cc1)C(=O)O (stereo not drawn)
39) CNC(=O)C[C@@H]1CC[C@@H]2[C@H](COc3ccc(NC(=O)C4CC4)cc3C(=O)N2C)O1
40) COc1cccc(NC(=O)C[C@@H]2CC[C@@H]3[C@@H](COc4ccc(NC(=O)C5CCOCC5)cc4C(=O)N3C)O2)c1
41) Cc1cc(S(=O)(=O)NC(C)C)ccc1OCC(=O)Nc1ccc2c(c1)OCCO2
42) O=C(CSc1ccccc1)Nc1ccc2c(c1)OCO2
assay / compound	31	32	33	34	35	36	37	38	39	40	41	42
Statin myotox sup	114*	2	-16	x	5	105*	3	-2	1	14	0	6
E-sel inducer	-2	x	x	x	x	x	x	x	0	0	x	3
esBAF inh	3	2	72*	61*	-10	-2	-5	-3	-1	1	4	44*
Yeast UUG start	20	-12	-10	6	-11	-7	-46	-15	3	x	x	-14
PGC1a acetyl inh	-2	x	-1	-11	0	-2	9	8	-1	0	110*	-20
PglD DTNB	-4	1	-1	8	-2	9	-1	10	0	-3	x	-3
